Assays:
[1] = target: μ opiate receptor (Cavia porcellus, UniProt A0ACM8Q262); assay type: binding, guinea pig
[2] = target: δ opiate receptor (Cavia porcellus, UniProt A0A286XTF2); experiment: Opiate (δ) binding, [3H]DPDPE competitive radioligand binding; design: species or system guinea pig

Sequences of proteins named here, by UniProt entry; tags and fusion partners are left off. A change or cut given only in a name is not applied to a line headed by its entry. Residues count along the entry.
UniProt A0ACM8Q262, 1-400: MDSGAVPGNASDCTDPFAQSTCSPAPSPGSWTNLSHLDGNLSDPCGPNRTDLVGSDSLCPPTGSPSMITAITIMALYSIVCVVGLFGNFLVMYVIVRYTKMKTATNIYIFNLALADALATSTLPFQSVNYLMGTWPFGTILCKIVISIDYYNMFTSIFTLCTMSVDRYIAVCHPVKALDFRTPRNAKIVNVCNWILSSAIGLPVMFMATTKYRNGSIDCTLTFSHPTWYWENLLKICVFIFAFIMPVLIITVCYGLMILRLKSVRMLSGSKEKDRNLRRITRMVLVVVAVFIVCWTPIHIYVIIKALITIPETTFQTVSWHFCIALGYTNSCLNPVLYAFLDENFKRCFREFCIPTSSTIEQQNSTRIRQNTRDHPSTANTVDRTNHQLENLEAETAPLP
UniProt A0A286XTF2, 1-366: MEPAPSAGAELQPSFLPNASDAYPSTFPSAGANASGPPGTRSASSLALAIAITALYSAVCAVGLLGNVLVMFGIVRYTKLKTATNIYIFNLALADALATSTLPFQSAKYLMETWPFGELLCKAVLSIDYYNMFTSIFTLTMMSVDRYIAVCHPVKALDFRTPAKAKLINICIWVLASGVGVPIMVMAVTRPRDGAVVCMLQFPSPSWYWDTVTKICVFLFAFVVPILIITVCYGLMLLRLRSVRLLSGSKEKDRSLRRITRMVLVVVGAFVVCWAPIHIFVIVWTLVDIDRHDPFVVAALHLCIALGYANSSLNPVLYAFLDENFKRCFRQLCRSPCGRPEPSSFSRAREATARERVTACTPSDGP

Work on (D-pen^3, D-pen^5) enkephalin [DPDPE] yielded an IC50 [1] of 4 nM, a Ki [1] of 0.37 nM and an IC50 [2] of 5.5 nM. For the same substance, the Ki [2] was 1.3 nM.
